Assay results taken from PMC4199474, “Assessment of Pharmacokinetics and Toxicology of Sadat-Habdan Mesenchymal Stimulating Peptide (SHMSP) in Rats and Goats” (International Journal of Biomedical Science : IJBS, 2014).
Read-outs that look alike come from different tables or passages of the source.

Tests used:
[1] = cited from earlier work
goats = experiment: Toxicology after deep intramuscular injection in goats (clinical observation, gross organs, histopathology); type: in vivo, goat
Method: (§1) Ninety (90) Sprague Dawley adult male rats and twenty adult male goats were acquired and identified by markings and were acclimated to the study environment for 16-21 days prior to dose administration. Animals were individually housed in suspended wire caging, and were kept on a 12 h / 12 h light/dark cycle except when interrupted for study procedures. Average room temperature was regulated in the range 18 to 29°C, average relative humidity of 30-70%, and an average daily airflow >10 fresh air changes/h. Animals were fed Lab Diet Certified Rodent Diet 5002 Meal food ad libitum, except during fasting prior to dose administration, and had access to water ad libitum.
(§2) The goats were injected deep intramuscularly 100 mg/kg body weight of the SHMSP dissolved in injection solution. In 10 Sprague Dawley rats of over 250 grams 20 mg/kg/day for 7 consecutive days was injected. All the animals were kept at a close watch. Clinical observation at least once daily and as necessary was undertaken. After 2 weeks animals were euthanized and major organs were harvested and histopathology samples were obtained and sent for histopathological studies.
as §2, with “Ten” for “The”, “liver, kidneys, spleen, brain, heart and intestines” for “major organs”, “harvested” for “harvested and histopathology samples were obtained”

[2] = type: in vivo; settings: male Sprague Dawley rats, 5 mg/kg i.m.; for Average conc. of peptide in plasma: HPLC-UV 215 nm, mean of n = 3
Method: as §1
In 90 skeletally mature male Sprague Dawley rats 5 milligram/kg body weight SHMSP was injected intramuscularly. Blood samples from the treated rats were collected after different time interval such as 30, 60, 120, 180, 240, 360, 480 and 1440 minutes. Samples from non-injected group were collected as control samples. Blood was transferred into heparinized tubes, the protease inhibitor then immediately added. The samples were stored at −80°C until analysis.
Primary stock solution of standard was prepared by dissolving lyophilized standard compound in deionized water to get a concentration of 1000 ng/mL and stored at -20°C. Working standard solutions were prepared by serially diluting the stock solution in deionized water to obtain the linear concentrations 250, 125, 62.5, 31.25 and 15.625 ng/mL. The plasma calibration curves were prepared at concentrations of 6.25, 3.12, 1.56, 0.78 and 0.39 ng/mL by spiking 190 µL of rat plasma with 10 µL of working standard and 200 µL of deionized water at an appropriate concentration (to make up to 400 µL of total sample volume). All these procedures were conducted on ice. Samples were vortexed for five seconds, centrifuged at 14000 rpm for 30 minutes at 4°C and the supernatant was collected for the analysis. Rat plasma samples were collected from the treated rats at different time points and prepared the samples for analysis.
Acetonitrile (HPLC grade, Fischer Scientific) and Milli-Q water was used for the analysis. Analysis was performed using HPLC Waters 2535 quaternary gradient module system with Waters 2489 UV detector and Waters 2707 auto-sampler. Separations were carried out on a Waters BioSuite C18 analytical column (4.6 × 250 mm) connected to a guard (3.9 × 20 mm) column and the system was operated at an ambient temperature. The column was equilibrated with 76% eluent A (water) and 24% eluent B (acetonitrile) with both containing 0.1% trifluoroacetic acid at a flow rate of 1.0 mL/min as mobile phase. After injection of 20 µL sample, the peptide was eluted with 15ml linear gradient up to 36% of eluent A. The time between injections was 25 min. and the eluent was monitored at a wavelength of 215 nm. Plasma was isolated, processed and 20 μL was injected to HPLC system. The concentrations obtained after three animals injections have been tabulated as Run 1, Run 2 and Run 3 (Table 1). The concentration of peptide present in the rat plasma samples collected at different time intervals were quantified using standard curve method. The unknown concentrations of peptide present in the plasma samples were calculated applying the value of peak area in the equation obtained from the standard curve (Figure 1). Data shown are mean ± SD (n=3).
There were no deaths is either of the study group or in control animals. Blood samples from the treated rats were collected after different time interval at 0, 30, 60, 120, 180, 240, 360, 480 and 1440 minutes (24 hours). Samples from non-injected group were collected as control samples. Plasma was isolated, processed and 20 uL was injected to HPLC system. The peak areas obtained for the three different animals has been tabulated (Table 1). […]

Sprague Dawley rats = experiment: Toxicology after 7 consecutive daily injections in rats (clinical observation, gross organs, histopathology); type: in vivo; settings: 20 mg/kg/day for 7 consecutive days
Method: as §1, §2
as §2, with “Ten” for “The”, “liver, kidneys, spleen, brain, heart and intestines” for “major organs”, “harvested” for “harvested and histopathology samples were obtained”

Vasculo endothelial growth factor [VEGF]
Half-life in the circulation [1]: under 90 minutes

Sadat-Habdan Mesenchymal Stimulating Peptide [SHMSP]
Toxicity at 20 times the recommended (therapeutic) dose (goats; 100 mg/kg i.m. (20 times the recommended 5 mg/kg), major organs): did not cause any toxic effects
Gross observations of the various organs (goats; goats (non-rodent), 100 mg/kg body weight deep i.m., euthanized after 2 weeks): appeared normal
Histopathological studies of organs (liver, kidneys, spleen, brain, heart, intestines) (goats; goats (non-rodent), 100 mg/kg body weight deep i.m., euthanized after 2 weeks, H & E): did not show any toxicity
Deaths (goats; goats, 100 mg/kg body weight deep i.m., observed 2 weeks): no deaths
Average conc. of peptide in plasma ([2]; plasma 30 min after injection): 2.3184 ng/mL
Average conc. of peptide in plasma ([2]; plasma 60 min after injection, 5 mg/kg): 1.7447 ng/mL
Average conc. of peptide in plasma ([2]; plasma 120 min after injection): 0.6169 ng/mL
Average conc. of peptide in plasma ([2]; plasma 180 min after injection): 0.1114 ng/mL
Average conc. of peptide in plasma ([2]; plasma 240 min after injection): 0.0939 ng/mL
Time the peptide remained in the circulation ([2]; plasma, HPLC-UV): 180 min
Half of the initial plasma concentration, reached at 90 min ([2]; half of the 30 min concentration, read on the plot at 90 min): 1.16 ng/mL
Deaths (Sprague Dawley rats; Sprague Dawley rats over 250 g, observed 2 weeks): no deaths
Gross observations of the various organs (Sprague Dawley rats; Sprague Dawley rats, euthanized after 2 weeks): appeared normal
Histopathological studies of organs (liver, kidneys, spleen, brain, heart, intestines) (Sprague Dawley rats; Sprague Dawley rats, euthanized after 2 weeks, H & E): did not show any toxicity
